This is an account of results in US20100311642A1, “USE OF V2 RECEPTOR ANTAGONISTS IN COMBINATION WITH VASO PRESSINERGIC AGNOSTS” (Ferring B.V., priority 2007, published 2010).

Protein sequences, listed by entry. Tags and fused reporters are not part of them.
UniProt Q00788, whole entry: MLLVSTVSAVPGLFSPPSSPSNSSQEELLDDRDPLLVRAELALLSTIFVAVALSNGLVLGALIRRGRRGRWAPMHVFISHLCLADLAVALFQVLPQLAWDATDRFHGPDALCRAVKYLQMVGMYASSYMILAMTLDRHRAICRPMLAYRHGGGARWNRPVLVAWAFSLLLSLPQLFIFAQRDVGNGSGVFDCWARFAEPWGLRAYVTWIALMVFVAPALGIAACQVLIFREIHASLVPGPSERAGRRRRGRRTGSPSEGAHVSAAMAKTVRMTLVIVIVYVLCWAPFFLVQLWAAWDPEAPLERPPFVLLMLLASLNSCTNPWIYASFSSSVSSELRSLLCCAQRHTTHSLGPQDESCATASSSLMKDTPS
UniProt P30518, whole entry: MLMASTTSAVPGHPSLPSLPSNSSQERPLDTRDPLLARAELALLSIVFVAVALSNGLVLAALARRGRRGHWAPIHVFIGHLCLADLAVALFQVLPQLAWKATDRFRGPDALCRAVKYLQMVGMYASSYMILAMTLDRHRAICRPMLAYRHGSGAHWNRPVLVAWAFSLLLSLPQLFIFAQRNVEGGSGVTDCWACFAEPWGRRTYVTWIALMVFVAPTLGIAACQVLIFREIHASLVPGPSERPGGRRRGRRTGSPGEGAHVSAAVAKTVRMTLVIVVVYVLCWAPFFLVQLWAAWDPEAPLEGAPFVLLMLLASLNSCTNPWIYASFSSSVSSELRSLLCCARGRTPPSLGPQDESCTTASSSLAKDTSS

One assay addresses T1, rat V2 receptor (rV2R) (Rattus norvegicus, UniProt Q00788).
T1 construct: expressed in transfected cells; host or cells: HEK-293
The experiment in a line: Agonist transcriptional reporter gene assay, rat V2 receptor. Type of assay: cell-based.

The next assay concerns the target T2, human V2 receptor (hV2R) (Homo sapiens, UniProt P30518).
T2 construct: expressed in transfected cells; host or cells: HEK-293
As to the kind of experiment: Antagonist transcriptional reporter gene assay, human V2 receptor. Type of assay: cell-based. The settings on record: hV2, HEK-293 reporter gene, vs AVP; Ki calculated from IC50; read-out: Geomean Ki. The protocol: Agonist activity of compounds on the human V2 receptor (hV2R) and the rat V2 receptor (rV2R) was determined in a transcriptional reporter gene assay in which HEK-293 cells were transiently transfected with either the human or rat V2 receptor, and a reporter DNA containing cyclic-AMP responsive promoter elements regulating expression of firefly luciferase. See Castarion, M. J., Spevak, W., Biochem Biophys Res Commun.1994 Jan.
Antagonist activity of compounds on the human V2 receptor (hV2R) and the rat V2 receptor (rV2R) was determined in a transcriptional reporter gene assay as in section III.A; see Castañón, M. J. et al. supra. […] Ki values were calculated from IC50 values.

pEC50, pKi: −log10 of the molar value.

For `NC(=O)CC[C@@H]1NC(=O)[C@H](Cc2ccccc2)NC(=O)[C@H](Cc2ccc(O)cc2)NC(=O)[C@@H](N)CSSC[C@@H](C(=O)N2CCC[C@H]2C(=O)N[C@@H](CCCN=C(N)N)C(=O)NCC(N)=O)NC(=O)[C@H](CC(N)=O)NC1=O` [Arginine vasopressin, AVP, arginine vasopressin], the negative-log EC50 (pEC50) on rat V2 receptor (rV2R) was 10.52.

For the compound `Cc1ccccc1C(=O)Nc1ccc(C(=O)N2CCCC(O)c3cc(Cl)ccc32)c(C)c1` (centres unmarked) [tolvaptan], at human V2 receptor (hV2R), the negative logarithm of the Ki (pKi) is 8.57.
